Experimental data as given in article PMC3608355, “Amino Acid Derivatives as New Zinc Binding Groups for the Design of Selective Matrix Metalloproteinase Inhibitors” (Journal of Amino Acids, 2013).

Sequences of proteins named here, by UniProt entry; tags and fusion partners are left off. Residues count along the entry.
UniProt P08253, 110-660 limits assumed: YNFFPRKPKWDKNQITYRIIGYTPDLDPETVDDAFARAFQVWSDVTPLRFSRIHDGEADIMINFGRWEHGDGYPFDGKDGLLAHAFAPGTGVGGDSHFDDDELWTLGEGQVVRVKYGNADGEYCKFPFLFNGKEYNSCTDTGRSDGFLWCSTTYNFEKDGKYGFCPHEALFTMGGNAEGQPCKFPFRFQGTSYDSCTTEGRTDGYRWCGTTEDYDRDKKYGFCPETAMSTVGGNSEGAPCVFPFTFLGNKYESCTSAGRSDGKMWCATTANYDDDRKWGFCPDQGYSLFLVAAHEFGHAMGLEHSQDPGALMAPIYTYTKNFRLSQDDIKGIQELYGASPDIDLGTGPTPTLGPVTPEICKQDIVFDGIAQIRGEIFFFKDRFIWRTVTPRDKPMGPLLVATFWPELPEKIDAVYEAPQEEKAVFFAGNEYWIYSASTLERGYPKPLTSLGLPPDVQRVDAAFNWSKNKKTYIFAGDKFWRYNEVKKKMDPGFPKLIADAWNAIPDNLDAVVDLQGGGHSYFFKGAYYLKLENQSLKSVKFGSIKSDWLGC

Molecular target: MMP-2 (Homo sapiens, UniProt P08253)
Assay: MMP inhibition fluorometric assay, MMP-2
Conditions: read-out: IC50 (μM ± SD), enzymatic inhibition of MMP-2; catalytic domain of MMP-2; ZBG library; value ± SD

Compound | IC50 [µM]
[N-]=[N+]=NCC(N)CO (centres unmarked) | 520
[N-]=[N+]=NCC(N)CN=[N+]=[N-] (centres unmarked) | > 1000
